Experimental findings from BindingDB's records for PubMed 6310078 (Pfizer, 1983) are described below.

Protein sequences, listed by entry. Tags and fused reporters are not part of them.
UniProt P10980, whole entry: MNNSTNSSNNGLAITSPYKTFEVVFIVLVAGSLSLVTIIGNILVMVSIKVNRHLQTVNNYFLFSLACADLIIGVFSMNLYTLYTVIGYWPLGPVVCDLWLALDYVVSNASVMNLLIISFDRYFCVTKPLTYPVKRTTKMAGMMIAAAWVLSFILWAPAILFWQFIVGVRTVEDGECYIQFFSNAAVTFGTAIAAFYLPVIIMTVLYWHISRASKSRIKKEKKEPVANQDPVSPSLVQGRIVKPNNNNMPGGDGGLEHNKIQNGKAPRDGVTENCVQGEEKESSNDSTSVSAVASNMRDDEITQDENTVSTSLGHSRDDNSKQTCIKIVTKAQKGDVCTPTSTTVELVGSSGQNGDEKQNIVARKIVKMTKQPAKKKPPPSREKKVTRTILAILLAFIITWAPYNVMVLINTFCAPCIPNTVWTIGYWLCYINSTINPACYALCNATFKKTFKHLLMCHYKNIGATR
UniProt P31652, whole entry: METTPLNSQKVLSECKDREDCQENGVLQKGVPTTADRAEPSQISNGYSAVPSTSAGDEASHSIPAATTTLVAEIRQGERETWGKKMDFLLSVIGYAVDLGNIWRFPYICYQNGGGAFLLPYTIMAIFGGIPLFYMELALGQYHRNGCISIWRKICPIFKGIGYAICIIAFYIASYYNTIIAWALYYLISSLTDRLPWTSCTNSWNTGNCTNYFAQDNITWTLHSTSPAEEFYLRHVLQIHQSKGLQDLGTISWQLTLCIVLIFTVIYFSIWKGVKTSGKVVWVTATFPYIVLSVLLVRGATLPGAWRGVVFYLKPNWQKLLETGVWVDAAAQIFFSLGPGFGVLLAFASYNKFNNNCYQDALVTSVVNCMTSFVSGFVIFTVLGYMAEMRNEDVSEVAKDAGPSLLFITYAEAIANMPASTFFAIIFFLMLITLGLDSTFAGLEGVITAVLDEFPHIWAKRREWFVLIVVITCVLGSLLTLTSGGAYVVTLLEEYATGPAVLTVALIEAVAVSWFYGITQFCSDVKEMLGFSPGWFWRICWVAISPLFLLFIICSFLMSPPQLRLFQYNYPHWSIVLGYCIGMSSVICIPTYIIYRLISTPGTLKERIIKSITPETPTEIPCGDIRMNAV

pKi: −log10 of the molar value.

Experiment [1] concerns the target Muscarinic acetylcholine receptor M2 (Rattus norvegicus, UniProt P10980).
The target of experiment [2] is Sodium-dependent serotonin transporter (Rattus norvegicus, UniProt P31652).

In the case of `CN1C2CC(OC(=O)C(CO)c3ccccc3)CC1C1OC12` (stereo not drawn) [3-hydroxy-2-phenyl-propionic acid 9-methyl-3-oxa-9-aza-tricyclo[3.3.1.0*2,4*]non-7-yl ester], the pKi (as a rule, the negative decadic logarithm of the Ki, by convention in mol/L) in experiment [1] was 8.15.

`CN[C@@H]1CC[C@@H](c2ccccc2)c2ccccc21` showed a negative logarithm of the Ki (pKi) in experiment [2] of 6.08.

With `N[C@H]1CC[C@@H](c2ccc(Cl)c(Cl)c2)c2ccccc21`, in experiment [2], the negative-log Ki (pKi) was 6.35.
